Assay results as given in ChEMBL document CHEMBL1124104, “(Acyloxy)benzophenones and (acyloxy)-4-pyrones. A new class of inhibitors of human neutrophil elastase” (J Med Chem, 1988).

What was measured:
Neutrophil elastase [1] = target: T1, Neutrophil elastase (Homo sapiens, UniProt P08246); test: Inhibitory activity against human leukocyte elastase at 10e-7 M
T1 sequence (P08246 whole entry): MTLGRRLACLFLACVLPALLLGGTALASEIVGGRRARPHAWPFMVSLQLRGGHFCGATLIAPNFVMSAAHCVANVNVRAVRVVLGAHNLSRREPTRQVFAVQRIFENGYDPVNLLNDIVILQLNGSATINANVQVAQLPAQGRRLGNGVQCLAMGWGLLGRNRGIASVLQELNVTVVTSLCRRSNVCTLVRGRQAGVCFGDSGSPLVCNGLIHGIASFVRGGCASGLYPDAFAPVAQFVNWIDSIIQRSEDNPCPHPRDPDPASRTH
Summary of the method: (§1)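 HLE activity followed as rise in absorbance at 410 nm from nitroanilide release; substrate (methoxysuccinyl)Ala-Ala-Pro-Val nitroanilide at 10⁻⁴ M. Run in 0.2 M Tris, pH 8.0, 30 °C. Inhibitors and substrate dissolved in DMSO, which made up 10% of the final medium. Enzyme titrated to give 0.12 OD unit/min per 10 mm path.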

Neutrophil elastase [2] = target: T1, Neutrophil elastase; test: Binding affinity towards human leukocyte elastase at 10e-7 M; summary of the method: as §1

IC50 (Neutrophil elastase [1]) [µM]	Ki (Neutrophil elastase [2]) [µM]	SMILES
0.13		CC(C)(C)C(=O)Oc1ccc(/N=N/c2ccc(OC(=O)C(C)(C)C)cc2)cc1
	0.2	CC(C)(C)C(=O)Oc1ccc(S(=O)(=O)c2ccc(OC(=O)C(C)(C)C)cc2)cc1
